Assay results reported in PubChem BioAssay AID504621 (Broad Institute, 2011).
Only a part is listed here, and it is no random draw. Some of these compounds have results that are not shown, active ones among them. The source made the active and inactive calls.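 How the source made its calls: active means every replicate shows inhibition above about 80%, whatever the replicate mean (limit read from the data); inconclusive means mean inhibition reaches the set limit but some replicate falls short; inactive means the rest.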

Assay: reduced ATP signal of yeast carrying P. falciparum Hsp90 – S. cerevisiae, BacTiter-Glo luminescence, single point, set 2, antimalarial PfHsp90 inhibitor project, primary screen (AID 504621);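 further: yeast relying on Plasmodium falciparum Hsp90 in place of its own; 0% = DMSO neutral controls and 100% = 20 µM radicicol positive controls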
Details: S. cerevisiae expressing PfHsp90, growth, 48 h, at 9.4 µM, active compounds read high, yeast lacking PDR1 and PDR3 efflux regulators

**Q.** For `O=C(NCC1(N2CCCCC2)CCCCC1)c1cccc(Cl)c1`, which inhibition is on record?
**A.** inactive: 4.8%

**Q.** For `COc1cccc(C(=O)NCC2(N3CCCCC3)CCCCC2)c1`, which inhibition is on record?
**A.** inactive: 0.693%

**Q.** Which inhibition does the source give for `COc1ccc(Cl)cc1C(=O)NCC1(N(C)C)CCCCC1` here?
**A.** inactive: 2.29%

**Q.** For `COc1cc(C(=O)NCC2(N(C)C)CCCCC2)c([N+](=O)[O-])cc1OC`, which inhibition is on record?
**A.** inactive: -6.42%

**Q.** With `CN(C)C1(CNC(=O)c2ccc(Br)cc2)CCCCC1` as the compound, how does the inhibition read?
**A.** inactive: 1.15%

**Q.** For `CC(C)Oc1ccc(C(=O)NCC2(N(C)C)CCCCC2)cc1`, which inhibition is on record?
**A.** inactive: 3.67%

**Q.** For `O=C(OCCN1CCCC1)C(O)(c1ccccc1)c1ccccc1`, which inhibition is on record?
**A.** inactive: -2.41%

**Q.** Which inhibition does the source give for `CN(C)c1cccc(C(=O)NCC2(N(C)C)CCCCC2)c1` here?
**A.** inactive: -11%

**Q.** Which inhibition does the source give for `COc1ccc(Br)c(C(=O)NCC2(N3CCCCC3)CCCCC2)c1` here?
**A.** inactive: 10.6%

**Q.** Which inhibition does the source give for `O=C(OC1CN2CCC1CC2)C(CO)(c1ccccc1)c1ccccc1` (stereo not given) here?
**A.** inactive: 5.85%

**Q.** Which inhibition does the source give for `Cc1ccc(C(=O)NCC2(N3CCCCC3)CCCCC2)cc1` here?
**A.** inactive: 12.6%

**Q.** Which inhibition does the source give for `CCN(CC)CC(C)C(C)OC(=O)C(O)(c1ccccc1)c1ccccc1` (stereo not given) here?
**A.** inactive: 3.41%

**Q.** For `COc1cc(SC)ccc1C(=O)NCC1(N(C)C)CCCCC1`, which inhibition is on record?
**A.** inactive: 0.444%

**Q.** Which inhibition does the source give for `CC(C)N1C(=O)CC2(CCN(CCOC(=O)C(O)(c3ccccc3)c3ccccc3)CC2)C1=O` here?
**A.** inactive: 0.45%

**Q.** For `CN1[C@@H]2CC[C@H]1CC(OC(=O)C(O)(c1ccccc1)c1ccccc1)C2` (stereo not given in full), which inhibition is on record?
**A.** inactive: -29.3%

**Q.** For `O=C(NCC1(N2CCCCC2)CCCCC1)c1cc([N+](=O)[O-])ccc1Cl`, which inhibition is on record?
**A.** inactive: -38.7%

**Q.** Which inhibition does the source give for `COc1ccc(C(=O)NCC2(N(C)C)CCCCC2)cc1` here?
**A.** inactive: 11.9%

**Q.** With `Cc1cc(C(=O)NCC2(N3CCCCC3)CCCCC2)ccc1[N+](=O)[O-]` as the compound, how does the inhibition read?
**A.** inactive: 17.2%

**Q.** Which inhibition does the source give for `CCN1CCCC(OC(=O)C2(O)c3ccccc3C=Cc3ccccc32)C1` (stereo not given) here?
**A.** inactive: 19.8%

**Q.** Which inhibition does the source give for `O=C(NCC1(N2CCCCC2)CCCCC1)c1cccc(Br)c1` here?
**A.** inactive: 23.4%

**Q.** For `C=CCN1CCN(CCOC(=O)C(O)(c2ccccc2)c2ccccc2)CC1`, which inhibition is on record?
**A.** inactive: -22.9%

**Q.** For `O=C(NCC1(N2CCCCC2)CCCCC1)c1cc(F)c(F)cc1Cl`, which inhibition is on record?
**A.** inactive: 20.2%

**Q.** Which inhibition does the source give for `Cc1ccccc1C(=O)NCC1(N2CCCCC2)CCCCC1` here?
**A.** inactive: 3%

**Q.** With `CN(C)C1CCCC1OC(=O)C(O)(c1ccccc1)c1ccccc1` (stereo not given) as the compound, how does the inhibition read?
**A.** inactive: -16.8%

**Q.** For `CN(C)c1ccc(C(=O)NCC2(N(C)C)CCCCC2)cc1`, which inhibition is on record?
**A.** inactive: 6.99%
